Measurements taken from ChEMBL document CHEMBL1124528, “Tetrahydrothiadiazoloisoquinolines: synthesis and inhibition of phenylethanolamine-N-methyltransferase” (J Med Chem, 1989).

Test system: Phenylethanolamine N-methyltransferase (rabbit)
Assay: Ability to inhibit rabbit adrenal phenylethanolamine N-methyl-transferase norepinephrine to epinephrine (E13), in vitro, at 10 e-6 M
Details: Oryctolagus cuniculus

inhibition: 79%
Compound: c1cc2nsnc2c2c1CCNC2
